The values that follow come from BindingDB's records for patent US10836758 (BRISTOL-MYERS SQUIBB COMPANY, 2020).

Protein sequences, listed by entry. Tags and fused reporters are not part of them.
UniProt Q15858, whole entry: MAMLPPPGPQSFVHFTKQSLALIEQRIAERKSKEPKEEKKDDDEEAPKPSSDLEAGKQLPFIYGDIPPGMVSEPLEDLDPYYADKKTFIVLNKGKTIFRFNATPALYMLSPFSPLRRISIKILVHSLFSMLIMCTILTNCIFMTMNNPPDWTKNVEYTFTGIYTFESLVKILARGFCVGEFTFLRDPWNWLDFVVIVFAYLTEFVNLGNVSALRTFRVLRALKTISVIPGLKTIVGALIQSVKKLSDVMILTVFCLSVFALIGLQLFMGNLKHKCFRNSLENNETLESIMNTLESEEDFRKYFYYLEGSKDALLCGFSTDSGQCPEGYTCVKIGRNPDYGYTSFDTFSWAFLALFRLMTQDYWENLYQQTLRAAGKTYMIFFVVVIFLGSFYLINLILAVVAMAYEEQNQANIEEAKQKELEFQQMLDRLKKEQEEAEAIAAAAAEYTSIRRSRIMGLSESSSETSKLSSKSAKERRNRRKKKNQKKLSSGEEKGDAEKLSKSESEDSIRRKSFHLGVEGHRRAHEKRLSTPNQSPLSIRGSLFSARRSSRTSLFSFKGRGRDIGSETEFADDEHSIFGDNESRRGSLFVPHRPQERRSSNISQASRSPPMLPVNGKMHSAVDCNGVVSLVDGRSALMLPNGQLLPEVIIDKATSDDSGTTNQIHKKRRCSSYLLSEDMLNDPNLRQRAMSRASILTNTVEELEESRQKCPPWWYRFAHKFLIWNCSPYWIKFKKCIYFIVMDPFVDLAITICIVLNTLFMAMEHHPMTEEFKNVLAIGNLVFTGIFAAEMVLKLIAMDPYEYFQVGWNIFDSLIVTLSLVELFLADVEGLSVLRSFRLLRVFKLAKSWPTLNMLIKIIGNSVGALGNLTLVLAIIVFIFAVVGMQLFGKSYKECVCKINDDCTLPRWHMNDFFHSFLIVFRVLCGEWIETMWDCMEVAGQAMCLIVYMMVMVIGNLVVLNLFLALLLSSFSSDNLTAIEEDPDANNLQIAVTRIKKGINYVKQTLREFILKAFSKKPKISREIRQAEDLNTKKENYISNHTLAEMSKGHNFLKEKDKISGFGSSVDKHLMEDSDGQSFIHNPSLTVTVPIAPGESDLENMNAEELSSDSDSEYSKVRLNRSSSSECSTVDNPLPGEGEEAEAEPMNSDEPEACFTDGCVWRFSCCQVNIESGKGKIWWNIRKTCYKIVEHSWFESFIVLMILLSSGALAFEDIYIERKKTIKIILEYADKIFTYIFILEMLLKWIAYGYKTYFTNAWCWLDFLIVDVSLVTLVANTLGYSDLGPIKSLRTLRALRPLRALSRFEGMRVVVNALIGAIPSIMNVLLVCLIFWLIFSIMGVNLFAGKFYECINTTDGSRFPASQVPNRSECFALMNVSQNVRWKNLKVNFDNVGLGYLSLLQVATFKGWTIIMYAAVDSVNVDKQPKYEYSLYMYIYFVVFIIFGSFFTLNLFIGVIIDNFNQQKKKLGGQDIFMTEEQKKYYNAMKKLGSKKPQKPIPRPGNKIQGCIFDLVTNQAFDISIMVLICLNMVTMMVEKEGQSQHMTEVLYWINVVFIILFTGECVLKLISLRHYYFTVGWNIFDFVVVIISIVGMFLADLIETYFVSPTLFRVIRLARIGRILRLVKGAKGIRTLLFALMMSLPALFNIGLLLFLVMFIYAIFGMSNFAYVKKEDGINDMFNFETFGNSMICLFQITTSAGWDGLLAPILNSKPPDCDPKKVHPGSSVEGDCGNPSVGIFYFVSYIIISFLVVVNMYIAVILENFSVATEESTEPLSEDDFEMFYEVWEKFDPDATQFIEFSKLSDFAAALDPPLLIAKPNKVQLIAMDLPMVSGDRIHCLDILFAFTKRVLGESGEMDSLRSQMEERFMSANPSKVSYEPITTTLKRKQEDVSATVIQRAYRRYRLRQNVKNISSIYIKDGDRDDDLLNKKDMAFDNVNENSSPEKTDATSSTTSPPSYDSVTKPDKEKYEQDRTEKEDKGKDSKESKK

The target of this experiment is Sodium channel protein type 9 subunit alpha (Homo sapiens, UniProt Q15858). Kind of experiment: cell-based. Conditions: IC50 (nM).

For orientation: IC50 means the concentration needed to halve the response being measured. A lower IC50 goes with inhibition by little substance. `NC1CCC(CCNc2cc(F)c(S(=O)(=O)Nc3nccs3)cc2Cl)(c2ccccc2)CC1` (configuration not stated) [US10836758, Example 54]: half-maximal inhibition (IC50) required 9 nM. In other words, the single-digit nanomolar range.

For the compound `NC1CCC(CCNc2cc(F)c(S(=O)(=O)Nc3nccs3)cc2Cl)(c2ccccc2)CC1` (configuration not stated) [US10836758, Example 55], half-maximal inhibition (IC50) was put at 164 nM.
